Reference: patent US10398687B2, “Use of cyproheptadine to treat organophosphate exposure” (dated 2019)

Test system: 2.75×LD50 sarin
Conditions: dose giving 75% survival

CN1[C@@H]2CC[C@H]1C[C@@H](OC(=O)C(CO)c1ccccc1)C2 (stereo partly shown)
ED75, 2.75X Sarin Challenge: ED75: 10.0 mg/kg
